The numbers were not newly measured in patent publication US7803760B2, “Methods of inducing ovulation” (Merck Serono SA, priority 2000, dated 2010), which cites them from elsewhere.

The conditions of the data set: in patients; cited from earlier work.

As to “hCG: glycoprotein hormone biologically and immunologically similar to pituitary LH”, the half-life result is “approximately 8 hours”.
